These results are taken from PMC10710080 (Proceedings of the National Academy of Sciences of the …, 2023).

As a reminder, the koff is the rate constant with which the complex falls apart. One may read the kon as the rate constant with which the complex forms.

The target in the assay is biotinylated PD-L1 (biotin (bought biotinylated; site not stated)). The assay is described as follows: SPR.

B1: masked antagonist MA19 after TEV protease treatment (other)
chain: DSPDRPWNPPTFSPALLVVTEGDNATFTCSFSNTSESFHVVWHRESPSGQTDTLAAFPEDRSQPGQDARFRVTQLPNGRDFHMSVVRARRNDSGTYVCGVISLAPKIQIKESLRAELRVTER
As to B1, the off-rate constant (koff) came out at 0.00283 s⁻¹ and the on-rate (kon) worked out at 478000 M⁻¹ s⁻¹.
